Reference: patent publication US8741916B2, “1,3,8-trisubstituted-1,3,8-triaza-spiro[4.5]decan-4-one derivatives as ligands of the ORL-1 receptor” (dated 2014)

How the values were obtained:
Mu opioid receptor = Mu opioid receptor (Rattus norvegicus, UniProt P33535); experiment: Rat brain mu opioid receptor binding ([3H]DAMGO); conditions: rat forebrain membranes, mean where tested more than once; for Ki: read-out: Mu Ki; for Mu % Inh @ 1 μM: 1 μM test compound
Delta Opioid Receptor = Delta Opioid Receptor (Rattus norvegicus, UniProt P33533); experiment: Rat brain delta opioid receptor binding ([3H]Naltrindole); conditions: rat forebrain membranes, mean where tested more than once; for Ki: read-out: Delta Ki; for Delta % Inh @ 1 μM: 1 μM test compound
[1] = target: recombinant human nociceptin receptor (ORL-1) (Homo sapiens, UniProt P41146); experiment: Nociceptin receptor binding assay ([3H]-nociceptin, HEK293 cell membranes); conditions: read-out: ORL1 Ki, mean where tested more than once
kappa opioid receptor = kappa opioid receptor (Cavia porcellus, UniProt P41144); experiment: Kappa (KOP) receptor binding ([3H]U-69593, cerebellum membrane homogenates); conditions: read-out: Kappa Ki; guinea pig cerebellum membranes, 0.7 nM [3H]U-69593

## CNCc1cn(CCCN2CN(c3ccc(F)cc3)C3(CCN([C@H]4Cc5cccc6cccc4c56)CC3)C2=O)nn1
Mu opioid receptor
  Ki: 82.3 nM
Delta Opioid Receptor
  Ki: 1510 nM
[1]
  Ki: 0.08 nM

## C#CCCN1CN(c2ccc(F)cc2)C2(CCN(C3Cc4cccc5cccc3c45)CC2)C1=O (stereo not shown)
Mu opioid receptor
  Mu % Inh @ 1 μM: 94%
Delta Opioid Receptor
  Delta % Inh @ 1 μM: 39%
[1]
  Ki: 1.54 nM

## O=C1N(CCn2cc(-c3cccnc3)nn2)CN(c2ccc(F)cc2)C12CCN([C@@H]1Cc3cccc4cccc1c34)CC2
Mu opioid receptor
  Ki: 13.7 nM
[1]
  Ki: 0.8 nM

## O=C1N(CCCn2cc(-c3cccc(F)c3)nn2)CN(c2ccc(F)cc2)C12CCN([C@@H]1Cc3cccc4cccc1c34)CC2
Mu opioid receptor
  Ki: 38.5 nM
Delta Opioid Receptor
  Ki: 173 nM
[1]
  Ki: 0.38 nM
Kappa opioid receptor
  Ki: 94 nM

## O=C1N(CCOC2CCCCO2)CN(c2ccc(F)cc2)C12CCN(C1Cc3cccc4cccc1c34)CC2 (stereo not shown)
[1]
  Ki: 0.28 nM

## O=C1N(CCc2cn(Cc3ccccc3)nn2)CN(c2ccc(F)cc2)C12CCN([C@H]1Cc3cccc4cccc1c34)CC2
Mu opioid receptor
  Mu % Inh @ 1 μM: 95%
  Ki: 46 nM
Delta Opioid Receptor
  Delta % Inh @ 1 μM: 20%
[1]
  Ki: 4 nM

## [N-]=[N+]=NCCN1CN(c2ccc(F)cc2)C2(CCN([C@@H]3Cc4cccc5cccc3c45)CC2)C1=O
Mu opioid receptor
  Ki: 15.6 nM
[1]
  Ki: 0.33 nM

## [N-]=[N+]=NCCCN1CN(c2ccc(F)cc2)C2(CCN([C@H]3Cc4cccc5cccc3c45)CC2)C1=O
[1]
  Ki: 1.2 nM

## CNCc1cn(CCCN2CN(c3ccc(F)cc3)C3(CCN([C@@H]4Cc5cccc6cccc4c56)CC3)C2=O)nn1
Mu opioid receptor
  Ki: 18 nM
[1]
  Ki: 0.21 nM

## O=C1N(CCn2cc(-c3cccnc3)nn2)CN(c2ccc(F)cc2)C12CCN([C@H]1Cc3cccc4cccc1c34)CC2
[1]
  Ki: 3.36 nM

## CC(=O)OCCN1CN(c2ccc(F)cc2)C2(CCN(C3Cc4cccc5cccc3c45)CC2)C1=O (stereo not shown)
[1]
  Ki: 0.3 nM

## O=C1N(CCCn2cc(-c3cccc(F)c3)nn2)CN(c2ccc(F)cc2)C12CCN([C@H]1Cc3cccc4cccc1c34)CC2
[1]
  Ki: 1.37 nM

## [N-]=[N+]=NCCN1CN(c2ccc(F)cc2)C2(CCN([C@H]3Cc4cccc5cccc3c45)CC2)C1=O
[1]
  Ki: 0.98 nM

## [N-]=[N+]=NCCCN1CN(c2ccc(F)cc2)C2(CCN([C@@H]3Cc4cccc5cccc3c45)CC2)C1=O
[1]
  Ki: 0.23 nM

## O=C1N(CCCOC2CCCCO2)CN(c2ccc(F)cc2)C12CCN(C1Cc3cccc4cccc1c34)CC2 (stereo not shown)
[1]
  Ki: 1.01 nM
